The results in this text go back to patent publication US10086000B2, “Tricyclic compounds as inhibitors of mutant IDH enzymes” (Merck Sharp & Dohme Corp., priority 2014, dated 2018).

Chains of the proteins cited; added tags and fusions are not shown.
UniProt O75874, whole entry R132H: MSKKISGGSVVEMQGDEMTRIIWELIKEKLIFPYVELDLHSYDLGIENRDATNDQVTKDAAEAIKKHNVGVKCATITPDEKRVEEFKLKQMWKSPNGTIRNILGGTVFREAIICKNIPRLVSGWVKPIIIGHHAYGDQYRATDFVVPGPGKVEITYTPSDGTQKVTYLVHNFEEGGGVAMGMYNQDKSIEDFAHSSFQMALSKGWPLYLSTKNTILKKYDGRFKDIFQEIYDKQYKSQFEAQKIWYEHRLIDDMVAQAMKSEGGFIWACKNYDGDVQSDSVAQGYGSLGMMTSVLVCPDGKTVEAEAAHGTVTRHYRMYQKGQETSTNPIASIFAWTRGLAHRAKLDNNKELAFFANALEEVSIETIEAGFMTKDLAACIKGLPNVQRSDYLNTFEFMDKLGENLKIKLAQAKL

The assay deals with R132H mutant IDH1 enzyme (Homo sapiens (Human), UniProt O75874, R132H). The experiment in a line: R132H IDH1 Enzymatic Assay. The note with it: R132H mutant IDH1 enzyme 1.5 nM final; luminescence (Kinase-GLO) readout. The assay is classed as biochemical.

In turn, `O=C(C1CC[C@H]2CCC[C@@H]12)N1Cc2cccnc2Nc2ccc(N3CCOCC3)cc21` (mixture of isomers) [Example 20, 8-morpholin-4-yl-6-[(3aR,6aR)-octahydropentalen-1-ylcarbonyl]-6,11-dihydro-5H-pyrido[2,3-b][1,5]benzodiazepine] showed a concentration for half-maximal inhibition (IC50) of 99 nM.

`O=C([C@H]1CC[C@@H]2OCCC[C@@H]2C1)N1Cc2cccnc2Nc2ccc(N3CCOCC3)cc21` (racemic) [Example 38, 8-morpholin-4-yl-6-[(4aR,6S,8aS)-octahydro-2H-chromen-6-ylcarbonyl]-6,11-dihydro-5H-pyrido[2,3-b][1,5]benzodiazepine] showed an IC50 of 393 nM. The result for `O=C([C@@H]1CC[C@@H]2OCCC[C@@H]2C1)N1Cc2cccnc2Nc2ccc(N3CCOCC3)cc21` (racemic) [Example 39, 8-morpholin-4-yl-6-[(4aR,6R,8aS)-octahydro-2H-chromen-6-ylcarbonyl]-6,11-dihydro-5H-pyrido[2,3-b][1,5]benzodiazepine] reads 624 nM; that for `CCO[C@H]1CC[C@H]2[C@@H]1CC[C@H]2C(=O)N1Cc2cccnc2Nc2ccc(N3CCOCC3)cc21` (racemic) [Example 77, 6-{[(1R,3aS,4S,6aS)-4-ethoxyoctahydropentalen-1-yl]carbonyl}-8-morpholin-4-yl-6,11-dihydro-5H-pyrido[2,3-b][1,5]benzodiazepine], 60 nM. The result for `CCO[C@@H]1CC[C@H]2[C@@H]1CC[C@H]2C(=O)N1Cc2cccnc2Nc2ccc(N3CCOCC3)cc21` (racemic) [Example 78, 6-{[(1R,3aS,4R,6aS)-4-ethoxyoctahydropentalen-1-yl]carbonyl}-8-morpholin-4-yl-6,11-dihydro-5H-pyrido[2,3-b][1,5]benzodiazepine] reads 309 nM. The result for `CCO[C@@H]1CC[C@H]2[C@@H]1CC[C@H]2C(=O)N1Cc2cccnc2Nc2ccc(N3C[C@@H]4C[C@H]3CO4)cc21` (racemic) [Example 85, 6-{[(1R,3aS,4R,6aS)-4-ethoxyoctahydropentalen-1-yl]carbonyl}-8-[(1S,4S)-2-oxa-5-azabicyclo[2.2.1]hept-5-yl]-6,11-dihydro-5H-pyrido[2,3-b][1,5]benzodiazepine] reads 64 nM; that for `O=C([C@H]1CC[C@@H]2OCCC[C@@H]2C1)N1Cc2cccnc2Nc2ccc(N3CCOCC3)cc21` (single isomer, unassigned) [Example 45], 123 nM. Molecule `O=C([C@@H]1CC[C@H]2OCCC[C@H]2C1)N1Cc2cccnc2Nc2ccc(N3CCOCC3)cc21` (single isomer, unassigned) [Example 46] gave an IC50 of 1580 nM.

The molecule `O=C([C@H]1CC[C@H]2CCC[C@H]21)N1Cc2cccnc2Nc2ccc(N3CCOCC3)cc21` (single isomer, unassigned) [Example 71] came in with an IC50 of 85 nM. The value for `O=C([C@@H]1CC[C@@H]2CCC[C@@H]21)N1Cc2cccnc2Nc2ccc(N3CCOCC3)cc21` (single isomer, unassigned) [Example 72] was 400 nM.

Molecule `CO[C@@H]1CC[C@@H]2[C@H]1CC[C@@H]2C(=O)N1Cc2cccnc2Nc2ccc(N3CC4CCC(C3)O4)cc21` (single isomer, unassigned) [Example 83] yielded a half-maximal inhibitory concentration (IC50) of 48 nM. In turn, `CCO[C@@H]1CC[C@@H]2[C@H]1CC[C@@H]2C(=O)N1Cc2cccnc2Nc2ccc(N3C[C@@H]4C[C@H]3CO4)cc21` (single isomer, unassigned) [Example 84] had an IC50 of 56 nM.

On to `O=C(C1CCCc2ncccc2C1)N1Cc2cccnc2Nc2ccccc21` (single isomer, unassigned) [Example 112, 6-(6,7,8,9-Tetrahydro-5H-cyclohepta[b]pyridin-6-ylcarbonyl)-6,11-dihydro-5H-pyrido[2,3-b][1,5]benzodiazepine], for which 22600 nM corresponded to half-maximal inhibition (IC50). As for `O=C(C1CCCc2ncccc2C1)N1Cc2cccnc2Nc2ccccc21` (single isomer, unassigned) [Example 113, 6-(6,7,8,9-Tetrahydro-5H-cyclohepta[b]pyridin-6-ylcarbonyl)-6,11-dihydro-5H-pyrido[2,3-b][1,5]benzodiazepine], 16400 nM corresponded to half-maximal inhibition (IC50).

In the case of `O=C(C1CCc2cccnc2CC1)N1Cc2cccnc2Nc2ccccc21` (single isomer, unassigned) [Example 114, 6-(6,7,8,9-Tetrahydro-5H-cyclohepta[b]pyridin-7-ylcarbonyl)-6,11-dihydro-5H-pyrido[2,3-b][1,5]benzodiazepine], 894 nM corresponded to half-maximal inhibition (IC50). The result for `O=C(C1CCc2cccnc2CC1)N1Cc2cccnc2Nc2ccccc21` (single isomer, unassigned) [Example 115, 6-(6,7,8,9-Tetrahydro-5H-cyclohepta[b]pyridin-7-ylcarbonyl)-6,11-dihydro-5H-pyrido[2,3-b][1,5]benzodiazepine] reads 429 nM.

For the molecule `O=C(C1C[C@H]2COC[C@@H](C1)N2CC(F)(F)F)N1Cc2cccnc2Nc2ccc(N3C[C@H]4CCC3CO4)cc21` (single isomer, unassigned) [Example 129], the half-inhibitory concentration (IC50) came to 6 nM. The value for `O=C(C1C[C@H]2COC[C@@H](C1)N2CC(F)(F)F)N1Cc2cccnc2Nc2ccc(N3C[C@H]4CCC3CO4)cc21` (single isomer, unassigned) [Example 130] was 5 nM; that for `O=C(C1CC[C@@H]2OCC[C@@H]2C1)N1Cc2cccnc2Nc2ccc(N3CCOCC3)cc21` (stereo in doubt) [Example 34, 8-morpholin-4-yl-6-[(3aS,5R,7aS)-octahydro-1-benzofuran-5-ylcarbonyl]-6,11-dihydro-5H-pyrido[2,3-b][1,5]benzodiazepine] was 1520 nM; that for `O=C(C1CC[C@H]2OCC[C@H]2C1)N1Cc2cccnc2Nc2ccc(N3CCOCC3)cc21` (stereo in doubt) [Example 35, 8-morpholin-4-yl-6-[(3aR,5S,7aR)-octahydro-1-benzofuran-5-ylcarbonyl]-6,11-dihydro-5H-pyrido[2,3-b][1,5]benzodiazepine] was 9480 nM. The value for `C[C@@H]1C[C@@H]2CC(C(=O)N3Cc4cccnc4Nc4ccc(N5CCOCC5)cc43)CC[C@@H]2O1` (stereo in doubt) [Example 53, 6-{[(2R,3aS,5R,7aS)-2-methyloctahydro-1-benzofuran-5-yl]carbonyl}-8-morpholin-4-yl-6,11-dihydro-5H-pyrido[2,3-b][1,5]benzodiazepine] was 1690 nM; that for `C[C@H]1C[C@H]2CC(C(=O)N3Cc4cccnc4Nc4ccc(N5CCOCC5)cc43)CC[C@H]2O1` (stereo in doubt) [Example 54, 6-{[(2S,3aR,5S,7aR)-2-methyloctahydro-1-benzofuran-5-yl]carbonyl}-8-morpholin-4-yl-6,11-dihydro-5H-pyrido[2,3-b][1,5]benzodiazepine] was 6140 nM; that for `CC(C)(C#N)c1ccc2c(c1)N(C(=O)C1CCc3ccccc3CC1)Cc1cccnc1N2` [Example 3, 2-Methyl-2-[6-(6,7,8,9-tetrahydro-5H-benzo[7]annulen-7-ylcarbonyl)-6,11-dihydro-5H-pyrido[2,3-b][1,5]benzodiazepin-8-yl]propanenitrile] was 3 nM.

As to `O=C(C1CC12CCCCC2)N1Cc2cccnc2Nc2ccccc21` (stereo not shown) [Example 4, 6-(spiro[2.5]oct-1-ylcarbonyl)-6,11-dihydro-5H-pyrido[2,3-b][1,5]benzodiazepine], the midpoint of inhibition, the IC50, lay at 7680 nM.

As for `O=C(C1CC12CCCC2)N1Cc2cccnc2Nc2ccccc21` (stereo not shown) [Example 5, 6-(spiro[2.4]hept-1-ylcarbonyl)-6,11-dihydro-5H-pyrido[2,3-b][1,5]benzodiazepine], the IC50 came out at 8480 nM.

`O=C(N1Cc2cccnc2Nc2ccccc21)C12CC(C1)C2` [Example 6, 6-(bicyclo[1.1.1]pent-1-ylcarbonyl)-6,11-dihydro-5H-pyrido[2,3-b][1,5]benzodiazepine] had an IC50 of 18200 nM. The result for `O=C(N1Cc2cccnc2Nc2ccccc21)C12CC(c3ccccc3)(C1)C2` [Example 7, 6-[(3-phenylbicyclo[1.1.1]pent-1-yl)carbonyl]-6,11-dihydro-5H-pyrido[2,3-b][1,5]benzodiazepine] reads 1860 nM; that for `O=C(O)C1CC2(C1)CC(C(=O)N1Cc3cccnc3Nc3ccccc31)C2` (stereo not shown) [Example 9, 6-(5,11-dihydro-6H-pyrido[2,3-b][1,5]benzodiazepin-6-ylcarbonyl)spiro[3.3]heptane-2-carboxylic acid], 39400 nM. The value for `O=C(C1CC2(CCC2)C1)N1Cc2cccnc2Nc2ccc(N3CCOCC3)cc21` [Example 10, 8-morpholin-4-yl-6-(spiro[3.3]hept-2-ylcarbonyl)-6,11-dihydro-5H-pyrido[2,3-b][1,5]benzodiazepine] was 212 nM; that for `O=C(C1Cc2ccccc2C1)N1Cc2cccnc2Nc2ccccc21` [Example 11, 6-(2,3-dihydro-1H-inden-2-ylcarbonyl)-6,11-dihydro-5H-pyrido[2,3-b][1,5]benzodiazepine] was 155 nM; that for `O=C(C1CCc2ccccc21)N1Cc2cccnc2Nc2ccccc21` (stereo not shown) [Example 12, 6-(2,3-dihydro-1H-inden-1-ylcarbonyl)-6,11-dihydro-5H-pyrido[2,3-b][1,5]benzodiazepine] was 1410 nM. The result for `CC(C)(C#N)c1ccc2c(c1)N(C(=O)C1Cc3ccccc3C1)Cc1cccnc1N2` [Example 13, 2-[6-(2,3-dihydro-1H-inden-2-ylcarbonyl)-6,11-dihydro-5H-pyrido[2,3-b][1,5]benzodiazepin-8-yl]-2-methylpropanenitrile] reads 3 nM; that for `O=C(C1CC[C@@H]2CCC[C@H]12)N1Cc2cccnc2Nc2ccccc21` (stereo partly drawn) [Example 14, 6-[(3aS,6aS)-octahydropentalen-1-ylcarbonyl]-6,11-dihydro-5H-pyrido[2,3-b][1,5]benzodiazepine], 630 nM; that for `O=C(C1C[C@H]2C[C@@H]1CCC2O)N1Cc2cccnc2Nc2ccccc21` (stereo partly drawn) [Example 15, (1R,5S)-6-(5,11-dihydro-6H-pyrido[2,3-b][1,5]benzodiazepin-6-ylcarbonyl)bicyclo[3.2.1]octan-2-ol], 26400 nM.
